According to publication PMC10789052:

Biological target: FLAG-ARMC5 R315W mutant (human)
Assay: affinity purification with mass spectrometry; HEK293 cells transfected with FLAG-tagged ARMC5 or ARMC5 R315W for 24 h; anti-FLAG precipitates analysed by LC-MS/MS; compared with FLAG empty vector; spectral counts normalised to the bait

fold lower binding capacity than WT ARMC5: 4 fold
Substance: POLR2A, the largest subunit of RNA polymerase II (endogenous in HEK293) (from UniProt P24928 1-1970) (natural protein)
